Laboratory results as given in PubChem BioAssay AID720711 (National Center for Advancing Translational Sciences (NCATS), 2013).
The entries are a selection whose mix differs from that of the whole data set. Some structures show a salt or complex split into parts, the way the source records it. The source made the active and inactive calls. Calls come from the whole dose curve; as a rule, active = well fitted activation curve with a large enough effect; inconclusive = small, poorly fitted or top-dose-only effect; inactive = no such curve, though single readings can be large or run the other way.

The chains behind the UniProt entries cited, without tags or fusion partners.
UniProt Q8WZA2, whole entry: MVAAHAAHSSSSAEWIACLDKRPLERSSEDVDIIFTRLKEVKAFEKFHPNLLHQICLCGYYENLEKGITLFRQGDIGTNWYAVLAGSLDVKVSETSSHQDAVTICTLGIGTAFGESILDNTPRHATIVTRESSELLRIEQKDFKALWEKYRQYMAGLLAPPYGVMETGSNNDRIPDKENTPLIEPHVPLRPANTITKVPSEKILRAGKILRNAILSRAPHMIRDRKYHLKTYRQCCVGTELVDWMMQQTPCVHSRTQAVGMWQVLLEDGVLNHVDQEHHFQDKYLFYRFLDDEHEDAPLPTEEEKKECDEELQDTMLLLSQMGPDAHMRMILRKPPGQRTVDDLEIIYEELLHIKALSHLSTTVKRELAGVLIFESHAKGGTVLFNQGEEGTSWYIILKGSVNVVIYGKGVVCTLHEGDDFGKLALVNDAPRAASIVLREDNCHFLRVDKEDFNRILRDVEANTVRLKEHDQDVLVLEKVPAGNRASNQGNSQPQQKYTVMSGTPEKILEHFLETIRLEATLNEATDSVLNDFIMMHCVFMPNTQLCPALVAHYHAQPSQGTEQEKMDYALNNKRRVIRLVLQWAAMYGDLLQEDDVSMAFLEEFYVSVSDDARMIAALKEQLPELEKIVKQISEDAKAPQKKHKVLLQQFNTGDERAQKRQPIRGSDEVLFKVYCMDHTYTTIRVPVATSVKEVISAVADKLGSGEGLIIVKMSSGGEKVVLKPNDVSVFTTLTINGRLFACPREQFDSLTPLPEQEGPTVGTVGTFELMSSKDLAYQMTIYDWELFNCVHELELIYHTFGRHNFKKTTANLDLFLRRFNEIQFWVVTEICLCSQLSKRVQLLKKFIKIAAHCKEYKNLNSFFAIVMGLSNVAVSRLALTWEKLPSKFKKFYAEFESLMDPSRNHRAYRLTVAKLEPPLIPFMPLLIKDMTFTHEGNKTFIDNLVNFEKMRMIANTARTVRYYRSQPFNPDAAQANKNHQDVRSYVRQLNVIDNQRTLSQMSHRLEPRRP

target: Rap guanine nucleotide exchange factor 4 (Homo sapiens) (UniProt Q8WZA2); assay: qHTS for Agonist of cAMP-regulated guanine nucleotide exchange factor 4 (EPAC2): primary screen; settings: biochemical qHTS, 100% = 6.5 mM cAMP response; at 154 µM (top of the series); note: nearly all actives have a fitted effect of over 50% in size
From the text: In multi-cellular eukaryotic organisms, the effects of cAMP are transduced by two ubiquitously-expressed intracellular cAMP receptors, the classic protein kinase A/cAMP-dependent protein kinase (PKA/cAPK) and the more recently discovered exchange protein directly activated by cAMP/cAMP-regulated guanine nucleotide exchange factor (EPAC/cAMP-GEF). Both PKA and EPAC are ubiquitously expressed in all tissues, and an increase in intracellular cAMP levels will lead to the activation of both PKA and EPAC. Therefore, careful dissections of the individual role and relative contribution of EPAC and PKA within the overall cAMP signaling in various model systems are critical for further elucidating the mechanism of cAMP signaling. To date no EPAC-specific antagonists and agonist, as well as isoform-specific agonists have been reported, and developing EPAC-specific pharmacological probes to determine the physiological functions that EPAC play in the overall cAMP-mediated signaling remains a major challenge within the research field. Furthermore, identified regulators of EPAC may lead to new mechanism-based therapeutic strategies specifically targeting the EPAC / cAMP-signaling components as EPAC has been implicated to play important roles in major human pathological conditions such as diabetes, heart disease, and cancer.
This qHTS will be used to screen the Molecular Libraries Small Molecule Repository (MLSMR) as a concentration-titration series using the NCGC unique quantitative screening (qHTS) platform to find activators for EPAC2. In addition, this assay will also be used as a counterscreen for the EPAC1 qHTS. This fluorescent based assay is developed and validated for EPAC2 that measures exchange using EPAC effector Rap1 complex with BODIPY-GDP, a GDP analog with a tethered fluorophores. Activators are identified by monitoring the change in fluorescence signal as the exchanged free BODIPY-GDP has a reduced fluorescence compared to Rap1-bound BODIPY-GDP. […] in signal (activation) is the desired outcome for the EPAC2 agonist while no activity in this assay is desired for the EPAC1 agonist counterscreen.
[1] de Rooij, J., Zwartkruis, F. J., Verheijen, M. H., Cool, R. H., Nijman, S. M., Wittinghofer, A., and Bos, J.L. (1998) Nature 396, 474-477
[2] Kawasaki, H., Springett, G. M., Mochizuki, N., Toki, S., Nakaya, M., Matsuda, M., Housman, D. E., and Graybiel, A. M. (1998) Science 282, 2275-2279
NIH Chemical Genomics Center [NCGC]
NIH Molecular Libraries Probe Centers Network [MLPCN]
Assay Submitter (PI): Xiaodong Cheng, The University of Texas, Medical Branch
Briefly, three uL of reagents (100 nM EPAC2, 250 nM RAP1B-BODIPY-GDP, 50 uM GDP) were dispensed into a 1536-well Greiner black solid-bottom medium binding assay plate. Controls and test compounds (23 nL) were transferred to the plate via a Kalypsys pin tool equipped with a 1536-pin array. The plates were centrifuged at 1,000 rpm for 15 seconds followed by 5 minute incubation at room temperature. The assay plates were read at 5 minute intervals for 30 minutes in the ViewLux plate reader using 480nm excitation and 540nm emission filters. The results were normalized to the agonist positive control of 6.5 mM cAMP.

SMILES	activation
O=[N+]([O-])c1cc([N+](=O)[O-])c(Nc2ccc(Cl)cc2)c([N+](=O)[O-])c1	inactive: 2.31%
COc1ccc(C(c2nnnn2C2CCCC2)N2CCC(n3c(=O)[nH]c4ccccc43)CC2)cc1 (configuration not stated)	inactive: 1.23%
CCCOc1ccc(C(=O)NCC2(N(C)C)CCCCC2)cc1OC	inactive: 1.94%
Cc1ccc(C(=O)NCC2(N(C)C)CCCCC2)o1	inactive: -6.65%
O=C(OC1CN2CCC1CC2)c1ccc([N+](=O)[O-])cc1 (configuration not stated)	inactive: 2.25%
CN1CCC(Nc2cccc(F)c2)CC1	inactive: -2.64%
O=C(NCC1(N2CCCCC2)CCCCC1)c1cncc(Br)c1	inactive: -5.87%
COc1ccc2c(c1O)-c1c(O)c(OC)cc3c1[C@H](C2)[N+](C)(C)CC3.O=[N+]([O-])c1cc([N+](=O)[O-])c([O-])c([N+](=O)[O-])c1[O-]	inactive: 9.45%
CCC(c1nnnn1C(C)(C)C)N1CCC(n2c(=O)[nH]c3ccccc32)CC1 (configuration not stated)	inactive: -16.8%
O=C(NCC1(N2CCOCC2)CCCCC1)c1cc(F)c(F)cc1Cl	inactive: -1.96%
CCN(CC)CCCNc1ccccc1[N+](=O)[O-].O=[N+]([O-])c1cc([N+](=O)[O-])c(O)c([N+](=O)[O-])c1	inactive: 4.24%
COc1cc(OC)c(C(=O)NCC2(N(C)C)CCCCC2)cc1OC	inactive: 6.72%
CCCCn1nnnc1C(c1ccnc2ccccc12)N1CCC(n2c(=O)[nH]c3ccccc32)CC1 (configuration not stated)	inactive: 8.72%
CC(C)c1ccc(NC2CCN(C(=O)OC(C)(C)C)CC2)cc1	inactive: -2.82%
CCCCn1nnnc1C(c1ccccc1OC(F)(F)F)N1CCC(n2c(=O)[nH]c3ccccc32)CC1 (configuration not stated)	inactive: -12.9%
O=[N+]([O-])c1cc([N+](=O)[O-])c(OC2CCCCC2O)c([N+](=O)[O-])c1 (configuration not stated)	inactive: 0.842%
CN(C)c1cccc(C(=O)NCC2(N3CCCCC3)CCCCC2)c1	inactive: -4.72%
COc1ccc(CN(CCCl)CCCl)cc1Cl	inactive: -2.09%
COc1cc(C(=O)NCC2(N3CCCCC3)CCCCC2)ccc1OC(F)F	inactive: -3.7%
O=C(NCC1(N2CCOCC2)CCCCC1)c1cc(=O)[nH]c2ccccc12	inactive: 12.6%
CN1CCN(CCOC(=O)C(O)(c2ccccc2)c2ccccc2)CC1	inactive: 7.38%
COc1ccc(NC2CCN(C(=O)OC(C)(C)C)CC2)cc1	inactive: 2.92%
CC(C)c1ccc(C(=O)NCC2(N3CCOCC3)CCCCC2)cc1	inactive: 21.3%

SMILES	activation
CCCCn1nnnc1C(c1cccc2ccccc12)N1CCC(n2c(=O)[nH]c3ccccc32)CC1 (configuration not stated)	inactive: 3.34%
O=[N+]([O-])c1cc([N+](=O)[O-])c(NCC2CCS(=O)(=O)C2)c([N+](=O)[O-])c1 (configuration not stated)	inactive: -1.8%
O=C(NCC1(N2CCCCC2)CCCCC1)c1cccc(C(F)(F)F)c1	inactive: 8.78%
O=c1[nH]c2ccccc2n1C1CCN(C(c2ccccc2OC(F)(F)F)c2nnnn2C2CCCC2)CC1 (configuration not stated)	inactive: -19.3%
N#CC1(Nc2ccccc2)CCN(CCc2ccccc2)CC1	inactive: 0.482%
CCN1CCC(Nc2ccc(Cl)cc2)CC1	inactive: -3.35%
CSc1ccc(C(=O)NCC2(N3CCOCC3)CCCCC2)cc1	inactive: 9.46%
O=C(NCC1(N2CCCCC2)CCCCC1)c1cccc([N+](=O)[O-])c1	inactive: 10.5%
O=C(NCC1(N2CCCCC2)CCCCC1)c1ccc(OC(F)F)cc1	inactive: 13.5%
CC(C)(C)n1nnnc1C(c1ccccc1OC(F)(F)F)N1CCC(n2c(=O)[nH]c3ccccc32)CC1 (configuration not stated)	inactive: 11.5%
CCOC(=O)N1CCC(Nc2cccc(C)c2)CC1	inactive: 4.49%
COc1cc(C(=O)NCC2(N(C)C)CCCCC2)ccc1OC(F)F	inactive: 6.82%
O=c1[nH]c2ccccc2n1C1CCN(C(c2cccc3ccccc23)c2nnnn2C2CCCC2)CC1 (configuration not stated)	inactive: 4.53%
O=c1[nH]c2ccccc2n1C1CCN(C(c2ccccc2)c2nnnn2C2CCCCC2)CC1 (configuration not stated)	inactive: 5.06%
COc1ccc(NC2CCN(CCc3ccccc3)CC2)c(OC)c1	inactive: 3.9%
CCOC(=O)N1CCC(Nc2ccc(F)cc2)CC1	inactive: 12.9%
O=P1(N(CCCl)CCCl)SCCCS1	inactive: 6.99%
CCCCn1nnnc1C(c1cc2ccccc2o1)N1CCC(n2c(=O)[nH]c3ccccc32)CC1 (configuration not stated)	inactive: 1.61%
CCCCOc1ccc(C(=O)NCC2(N3CCOCC3)CCCCC2)cc1	inactive: -6.13%
O=C(NCC1(N2CCCCC2)CCCCC1)c1ccc(F)cc1	inactive: 6.3%
O=C1CCN(Cc2ccccc2)CC1	inactive: 2.82%
CC(C)(C)n1nnnc1C(c1ccccc1)N1CCC(n2c(=O)[nH]c3ccccc32)CC1 (configuration not stated)	inactive: 3.97%
CCOc1ccc(C)cc1CN(CCCl)CCCl	inactive: 2.23%

SMILES	activation
COc1ccc(Cl)cc1C(=O)NCC1(N2CCOCC2)CCCCC1	inactive: 0.258%
O=C1C(O)=C([N+](=O)[O-])C(=O)C(O)=C1[N+](=O)[O-]	inactive: 7.81%
N#CC1(Nc2ccccc2)CCN(Cc2ccccc2)CC1	inactive: 12.5%
O=C(NCC1(N2CCCCC2)CCCCC1)c1ccc(Cl)s1	inactive: 7.77%
O=C(OC1CN2CCC1CC2)C1c2ccccc2Oc2ccccc21 (configuration not stated)	inactive: 3.82%
O=c1[nH]c2ccccc2n1C1CCN(C(c2cc3ccccc3o2)c2nnnn2C2CCCCC2)CC1 (configuration not stated)	inactive: 2.58%
CCCCn1nnnc1C(c1ccc(OC)cc1)N1CCC(n2c(=O)[nH]c3ccccc32)CC1 (configuration not stated)	inactive: 14%
CCOC(=O)N1CCC(Nc2ccc(OC)cc2)CC1	inactive: 14.2%
Cc1cc(C)cc(N(C(=O)c2ccccc2)C2CCN(C(=O)OC(C)(C)C)CC2)c1	inactive: 16.9%
O=C(NCC1(N2CCCCC2)CCCCC1)c1ccc(Cl)nc1	inactive: -1.06%
O=c1[nH]c2ccccc2n1C1CCN(C(c2ccccc2OC(F)(F)F)c2nnnn2C2CCCCC2)CC1 (configuration not stated)	inactive: -4.74%
O=C(NCC1(N2CCOCC2)CCCCC1)c1cc2ccccc2o1	inactive: 3.44%
Cc1cccc(NC2(C#N)CCN(Cc3ccccc3)CC2)c1	inactive: 0.275%
CSc1ccccc1C(=O)NCC1(N2CCCCC2)CCCCC1	inactive: 12.9%
COc1ccc(C(=O)NCC2(N3CCCCC3)CCCCC2)c(OC)c1OC	inactive: 2.42%
CC(C)(C)OC(=O)N1CCC(N(C(=O)c2ccccc2)c2ccc(F)cc2)CC1	inactive: 6.16%
CCC(c1nnnn1C1CCCC1)N1CCC(n2c(=O)[nH]c3ccccc32)CC1 (configuration not stated)	inactive: 6.58%
COc1ccc(C(=O)NCC2(N3CCCCC3)CCCCC2)cc1	inactive: 13.1%
CCCCn1nnnc1C(CC)N1CCC(n2c(=O)[nH]c3ccccc32)CC1 (configuration not stated)	inactive: -2.51%
O=C(NCC1(N2CCCCC2)CCCCC1)c1cccs1	inactive: 4.98%
CCCCn1nnnc1C(c1cccs1)N1CCC(n2c(=O)[nH]c3ccccc32)CC1 (configuration not stated)	inactive: 19.5%
O=C(NCC1(N2CCCCC2)CCCCC1)c1ccc(=O)[nH]c1	inactive: -1.24%
CN1CCC(Nc2ccc(Cl)cc2)CC1	inactive: 0.115%

SMILES	activation
COc1cccc(C(c2nnnn2C2CCCC2)N2CCC(n3c(=O)[nH]c4ccccc43)CC2)c1OC (configuration not stated)	inactive: 0.482%
COc1cc(OC)cc(C(=O)NCC2(N3CCOCC3)CCCCC2)c1	inactive: 13.6%
COc1cccc(C(=O)N(c2cc(C)cc(C)c2)C2CCN(C(=O)OC(C)(C)C)CC2)c1	inactive: 1.94%
CCC(CO)(C(=O)OC1CN2CCC1CC2)c1ccccc1 (configuration not stated)	inactive: 7.97%
O=C(O)C1(Nc2ccccc2)CCN(Cc2ccccc2)CC1	inactive: 0.318%
NN(c1ccccc1)C1CCN(CCc2ccccc2)CC1	inactive: -3.29%
CC(C)(C)OC(=O)N1CCC(Nc2ccccc2)CC1	inactive: 10.4%
O=c1[nH]c2ccccc2n1C1CCN(C(c2cc3ccccc3o2)c2nnnn2C2CCCC2)CC1 (configuration not stated)	inactive: 0.82%
CCCOc1ccc(C(=O)NCC2(N(C)C)CCCCC2)cc1	inactive: -1.19%
CN1CCC(Nc2ccc(F)c(Cl)c2)CC1	inactive: 1.16%
CCOc1ncccc1C(=O)NCC1(N2CCOCC2)CCCCC1	inactive: -3.19%
CN(C)c1ccc(C(=O)NCC2(N3CCCCC3)CCCCC2)cc1	inactive: 9.5%
Cn1c(=O)[nH]cc(N(CCCl)CCCl)c1=O	inactive: -0.758%
O=C(NCC1(N2CCCCC2)CCCCC1)c1ccco1	inactive: 7.84%
COc1ccc(C(c2nnnn2C2CCCCC2)N2CCC(n3c(=O)[nH]c4ccccc43)CC2)cc1 (configuration not stated)	inactive: 6.08%
CCN1CCC(Nc2cccc(F)c2)CC1	inactive: 4.2%
CC(C)(C)n1nnnc1C(c1ccnc2ccccc12)N1CCC(n2c(=O)[nH]c3ccccc32)CC1 (configuration not stated)	inactive: 16%
Cc1ccccc1NC1(C#N)CCN(Cc2ccccc2)CC1	inactive: 5.26%
Fc1ccccc1NC1CCN(Cc2ccccc2)CC1	inactive: 6.44%
Cc1ccc(Nc2c([N+](=O)[O-])cc([N+](=O)[O-])cc2[N+](=O)[O-])cc1	inactive: 4.81%
Cc1ccc(C(=O)NCC2(N3CCCCC3)CCCCC2)o1	inactive: -4.17%
Cc1ccc(NC2(C#N)CCN(Cc3ccccc3)CC2)cc1	inactive: 0.489%
CCC(c1nnnn1C1CCCCC1)N1CCC(n2c(=O)[nH]c3ccccc32)CC1 (configuration not stated)	inactive: 1.39%
